Screening results (PubChem BioAssay)
HCMV UL50-53 inh: inhibitors of HCMV UL50-UL53 interaction, biochemical, HTRF. HCMV UL50-UL53 nuclear egress complex (human cytomegalovirus). normalized percent inhibition. inhibition, % (no concentration beside the values). 190,000 tested, 0.15% active. AID 1918969, 2023; in the data active = inhibition above about 27%, passing the limit was not always enough
GIV Gai3 FP: GIV-Galpha-i interaction inhibition. AID 1224905. actives 0.42% (n = 210,000). percent of control (FP), % (test concentration not listed). Galpha-i3/FITC-GIV peptide fluorescence polarization, 90 min; stronger effect = lower value; scaled: aluminum fluoride 0%, vehicle 100%;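 active = replicate mean at 85% of control or lower, very high polarization wells dropped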;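 also: wells of about 15 µL received 100 nL stock; the first replicate is given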
GIV-Gai FP conf: inhibitors of GIV peptide binding to Galpha-i3, confirmation, biochemical, fluorescence polarization, FITC-GIV peptide, rat Galphai3; hits give low values; fluorescence polarization, mP at 100 µM; 580 tested, 38% active; shares compounds with GIV Gai3 FP;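 active = inhibition score of 15 or more, meaning 100 minus mean polarization as percent of control over three replicates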;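 note: lower mP means peptide displaced from Galphai3 so more inhibition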
GIV-Gai AS conf: inhibitors of GIV binding to Galpha-i3, confirmation, orthogonal assay for GIV-Galpha-i inhibitor project, biochemical, AlphaScreen, His-GIV, GST-Galphai3; shares compounds with GIV Gai3 FP; purified proteins, 90 min; hits give low values; AlphaScreen counts at 100 µM; 580 tested, 39% active; AID 1259351, 2017;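 active = inhibition score at or above a set limit, where the score is 100 minus the three-replicate mean percent of control signal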
Active calls of the source: *; · = not tested or not shown. Compounds with a hit are over-represented: about 0.46% of the library has one in this group of screens.

(1) Cc1cc2c(cc3c(SCC(=O)Nc4ccc(Cl)cc4F)nnc(C)n32)o1
(2) Cc1nc(-c2ccc(-n3cc(C(=O)NCc4ccc(Cl)cc4)c(C)n3)cc2)no1
(3) COc1ccccc1NC(=O)c1c(N=Cc2c(O)ccc3ccccc23)cnn1C
(4) Oc1ccc2ccccc2c1C=Nc1cccn2cc(-c3ccccc3)nc12
(5) CC(=O)Nc1cccc(NC(=O)CSc2ncnc3ccccc23)c1

Screen / compound no.	1	2	3	4	5
GIV-Gai AS conf	·	·	·	37990	·
GIV Gai3 FP	108	105	108	-9.9*	·
HCMV UL50-53 inh	-34	-37	·	·	-9
GIV-Gai FP conf	·	·	·	9.8*	·

(6) COc1ccc(-c2ccc3cc(Cl)ccc3n2)c(OC)c1
(7) CCN(CC)CCCC(C)Nc1c2ccc(Cl)cc2nc2ccc(OC)cc12 (stereo not drawn)
(8) C=CCN(CC=C)CC(O)Cn1c2c(c3cc(C)ccc31)CCCC2 (stereo not drawn)
(9) CC(c1ccccc1)n1c(C2CC2)nc2ccccc21 (stereo not drawn)
(10) COc1ccc(-c2nc3c(n2O)CCC/C3=N\O)cc1

Screen / compound no.	6	7	8	9	10
GIV-Gai AS conf	·	32214	·	·	·
GIV Gai3 FP	·	44*	99	97	100
HCMV UL50-53 inh	-24	-62	·	11	-35
GIV-Gai FP conf	·	41*	·	·	·

(11) Cc1ccc(-n2nc3c(n2)/C(=N/O)CCC3)cc1
(12) CCOC(=O)N1CCN(C(=S)Nc2ccc3nsnc3c2)CC1
(13) CCOC(=O)N1CCN(C(=S)Nc2ccc(C)c(C)c2)CC1
(14) CCCCN(CC)c1ncc(C(=O)O)cc1NS(=O)(=O)c1cc(C)c(C)cc1C
(15) Cc1ccc(C)c(S(=O)(=O)Nc2cc(C(=O)O)cnc2N(C)C)c1

Screen / compound no.	11	12	13	14	15
GIV-Gai AS conf	23948*	21787	·	·	26202*
GIV Gai3 FP	79*	77*	·	101	86
HCMV UL50-53 inh	47*	-76	-14	-15	-35
GIV-Gai FP conf	66	61*	·	·	60

(16) CCN(Cc1ccccc1)c1ncc(C(=O)O)cc1NS(=O)(=O)c1cc(C)cc(C)c1
(17) CCN(CC)c1ncc(C(=O)O)cc1NS(=O)(=O)c1cc(C)cc(C)c1
(18) Cc1ccccc1C1CCCN1C(=O)c1cnn2c(C(F)F)cc(C3CC3)nc12 (stereo not drawn)
(19) Cc1ccc(OCCSc2nnc(N)s2)cc1
(20) COc1ccc(Oc2ncnc3oc(C)c(C)c23)cc1

Screen / compound no.	16	17	18	19	20
GIV-Gai AS conf	·	26287*	·	·	·
GIV Gai3 FP	138	80*	105	·	105
HCMV UL50-53 inh	-29	-32	-40	-12	-25
GIV-Gai FP conf	·	53	·	·	·

(21) Cc1ccc(C)n1-c1ccc(C(=O)O)c(C(=O)O)c1
(22) Cc1ccc(C)n1-c1sccc1C(=O)O
(23) CCc1ccc(-n2c(C)ccc2C)cc1
(24) Cc1ccc(C)n1-c1cccc(C(=O)O)c1
(25) Cc1ccc(C)n1-c1ccc(CC(=O)O)cc1

Screen / compound no.	21	22	23	24	25
GIV-Gai AS conf	3015*	3223*	·	·	2612*
GIV Gai3 FP	60*	27*	·	·	36*
HCMV UL50-53 inh	11	28	-34	21	-23
GIV-Gai FP conf	49*	55	·	·	33*

(26) Cc1ccc(C)n1-c1sccc1C(=O)CC#N
(27) Cc1cc(C(=O)N2CCc3[nH]nc(COc4ccccc4)c3C2)c(C)o1
(28) COc1ccc(CCNS(=O)(=O)c2ccc(F)c(C(=O)Nc3ccccc3C(F)(F)F)c2)cc1OC
(29) O=C(Nc1ccc(Cl)cn1)c1ccccc1-c1nc(-c2ccccc2)no1
(30) O=C1c2ccccc2S(=O)(=O)c2cc(-c3nn[nH]n3)ccc21

Screen / compound no.	26	27	28	29	30
GIV-Gai AS conf	·	·	·	·	·
GIV Gai3 FP	106	·	99	93	97
HCMV UL50-53 inh	-12	-19	·	-9	-209
GIV-Gai FP conf	·	·	·	·	·

(31) O=C1C(Cc2ccc(-c3nn[nH]n3)cc2)=C(c2ccccc2)S(=O)(=O)c2ccccc21
(32) Cc1ccc2c(c1)c1c3n2CCCNC3CCC1 (stereo not drawn)
(33) Cc1ccc2c(c1)c1c3n2C=CNC3CCC1 (stereo not drawn)
(34) NC(=O)c1c(NC(=S)NC(=O)c2ccccc2Cl)sc2c1CCCC2
(35) CC1CCC(NC(=O)C2(C)Cn3c(cc4occc43)C(=O)N2CCCN2CCCCC2C)CC1 (stereo not drawn)

Screen / compound no.	31	32	33	34	35
GIV-Gai AS conf	36755*	·	25813*	·	·
GIV Gai3 FP	86	102	82*	·	104
HCMV UL50-53 inh	-21	-11	-75	0	-19
GIV-Gai FP conf	62	·	52*	·	·

(36) CCN(CC)c1nc2ccsc2c(=O)n1CCC(=O)N1CCN(c2ccccn2)CC1
(37) CCn1cc(/C=C2/C(=O)N(c3ccccc3)c3ccccc32)c2ccccc21
(38) CCn1cc(/C=C2/C(=O)N(c3ccccc3)N=C2C)c2ccccc21
(39) Cc1nnc(-c2coc(S(=O)(=O)N3CCCCC3C)c2)o1 (stereo not drawn)
(40) O=C1C(Sc2ncn[nH]2)=C/C(=N/S(=O)(=O)c2ccc(F)cc2)c2ccccc21

Screen / compound no.	36	37	38	39	40
GIV-Gai AS conf	·	38150	·	·	5053*
GIV Gai3 FP	101	53*	·	105	3.7*
HCMV UL50-53 inh	·	·	-41	·	2
GIV-Gai FP conf	·	69	·	·	36*

(41) O=C1C(Sc2ncn[nH]2)=C/C(=N/S(=O)(=O)c2cccs2)c2ccccc21
(42) O=C(O)C(Sc1ncn[nH]1)c1ccccc1 (stereo not drawn)
(43) CCOc1ccc(S(=O)(=O)/N=C2/C=C(Sc3ncn[nH]3)C(=O)c3ccccc32)cc1
(44) O=S(=O)(Nc1cc(Sc2ncn[nH]2)c(O)c2ccccc12)c1cccs1
(45) CCOc1ccc(CSc2ncn[nH]2)cc1

Screen / compound no.	41	42	43	44	45
GIV-Gai AS conf	4995*	·	6312*	·	·
GIV Gai3 FP	18*	·	11*	105	99
HCMV UL50-53 inh	51*	-18	21	-1	-4
GIV-Gai FP conf	40*	·	32*	·	·

(46) Cc1cccc(CCNC(=O)C2CCN(S(=O)(=O)c3ccc4[nH]c(=O)ccc4c3)CC2)c1
(47) Cc1nnc(SCc2nc(-c3ccccc3)oc2CSc2nnc(C)c(=O)[nH]2)[nH]c1=O
(48) CCOC(=O)C(Cc1ccc(O)cc1)NS(=O)(=O)c1ccc2c(c1)C(=O)c1ccccc1C2=O (stereo not drawn)
(49) CCOC(=O)C(Cc1ccc(O)cc1)NC1=CC(=O)C(=O)c2ccccc21 (stereo not drawn)
(50) Cc1ccc(C(=O)c2cc(F)c(N3CCOCC3)cc2Cl)cc1C

Screen / compound no.	46	47	48	49	50
GIV-Gai AS conf	·	·	·	32471	·
GIV Gai3 FP	111	112	101	82*	105
HCMV UL50-53 inh	·	·	·	·	·
GIV-Gai FP conf	·	·	·	53*	·

(51) Cc1cc(N2CCOCC2)c(F)cc1C(=O)c1ccccc1
(52) NC(=O)c1noc(C(=O)N(c2ccc(OC(F)(F)F)cc2)C(C(=O)NC2CCCC2)c2c[nH]c3ccccc23)c1N (stereo not drawn)
(53) COc1ccc2nc(N(Cc3cccnc3)C(=O)Cc3ccccc3)sc2c1
(54) CCc1ccc2nc(N(Cc3cccnc3)C(=O)Cc3ccccc3)sc2c1
(55) Cc1ccccc1CNC(=O)CN(c1ccccc1Br)S(C)(=O)=O

Screen / compound no.	51	52	53	54	55
GIV-Gai AS conf	43945	·	·	33433	·
GIV Gai3 FP	92	97	112	37*	106
HCMV UL50-53 inh	-23	4	·	·	·
GIV-Gai FP conf	68	·	·	77	·

(56) CN(C)c1ccc2nc3c(=O)[nH]c(=O)[nH]c3nc2c1
(57) Cc1cc2nc3c(=O)[nH]c(=O)[nH]c3nc2cc1N
(58) Cc1cc2nc3[nH]c(=O)[nH]c(=O)c3nc2cc1C
(59) O=c1[nH]c(=O)c2nc3ccc(Cl)cc3nc2[nH]1
(60) Cc1cccc(-n2nnnc2C(C)(C)N(C)C)c1
(61) O=C(Cc1csc(NC(=O)Nc2ccccc2)n1)NC1CCCCC1
(62) CC1(C)Nc2ccccc2NC1=O
(63) COC(=O)C(Cc1ccccc1)NC(=O)c1cccc2ccccc12 (stereo not drawn)

Screen / compound no.	56	57	58	59	60	61	62	63
GIV-Gai AS conf	14401*	30002*	·	·	·	·	·	·
GIV Gai3 FP	77*	64*	·	103	102	103	99	98
HCMV UL50-53 inh	·	·	-112	·	·	-4	-13	28
GIV-Gai FP conf	33*	46*	·	·	·	·	·	·
